From patent US5032404A, “Lipsome-incorporation of polyenes” (priority 1989, dated 1991)
Where two headings read alike, the source gives them in different places.

Legend:
Hale-Stoner mice = experiment: In vivo toxicology of free- and liposomal-hamycin in mice; settings: 90 days observation
human RBCs = experiment: In vitro toxicity: lysis of human red blood cells (hemoglobin release at 540 nm); settings: 37° C., 45 min

## hamycin
DMFA
  Maximum solubility: 10000 µg/mL
DMFA, 1 mg/ml
  Solubility in DMFA at 1 mg/ml: Yes
DMSO
  Maximum solubility: 20000 µg/mL
DMSO, 1 mg/ml
  Solubility in DMSO at 1 mg/ml: Yes
chloroform, 1 mg/ml
  Solubility in chloroform at 1 mg/ml: Nil
ethanol, 1 mg/ml
  Solubility in ethanol at 1 mg/ml: Soluble
methanol
  Maximum solubility: 100 µg/mL
methanol, 1 mg/ml
  Solubility in methanol at 1 mg/ml: Partial
water/saline, 1 mg/ml
  Solubility in water/saline at 1 mg/ml: Nil
Hale-Stoner mice
  Maximal tolerated dose (MTD): 20 micrograms/mouse
Human RBCs; 4.0 ug/ml
  Lysis of human RBCs: 100%
Human RBCs; 0.4 to 4.0 ug/ml
  Lysis of human RBCs, dose dependence: linear increase in lysis
